Patent US20210145944

Key:
TDP-43 = TDP-43 (UniProt Q13148)
Tau-410 = Tau-410 (UniProt P10636)
Tau-441 (P301L) = Tau-441 (P301L) (UniProt P10636)
p-Tau-441 = p-Tau-441 (UniProt P10636)
α-synuclein = α-synuclein (UniProt P37840)

Substance: kallikrein-6 (KLK6) activated by lysyl endopeptidase
- % digested at 0 min (TDP-43): 0%
- % digested at 1 min (TDP-43): 1%
- % digested at 5 min (TDP-43): 18%
- % digested at 60 min (TDP-43): 29%
- digestion on immobilized protease column (Table 4) (TDP-43): degraded
- % digested at 0 min (Tau-410): 0%
- % digested at 1 min (Tau-410): 31%
- % digested at 5 min (Tau-410): 56%
- % digested at 60 min (Tau-410): 74%
- digestion on immobilized protease column (Table 4) (Tau-410): degraded
- % digested at 0 min (Tau-441 (P301L)): 0%
- % digested at 1 min (Tau-441 (P301L)): 68%
- % digested at 5 min (Tau-441 (P301L)): 91%
- % digested at 60 min (Tau-441 (P301L)): 79%
- digestion on immobilized protease column (Table 4) (Tau-441 (P301L)): degraded
- % digested at 0 min, band B1 (p-Tau-441): 0%
- % digested at 0 min, band B2 (p-Tau-441): 0%
- % digested at 1 min, band B1 (p-Tau-441): 74%
- % digested at 1 min, band B2 (p-Tau-441): 63%
- % digested at 5 min, band B1 (p-Tau-441): 98%
- % digested at 5 min, band B2 (p-Tau-441): 95%
- % digested at 60 min, band B1 (p-Tau-441): 97%
- % digested at 60 min, band B2 (p-Tau-441): 92%
- digestion on immobilized protease column (Table 4) (p-Tau-441): degraded
- % digested at 0 min (α-synuclein): 0%
- % digested at 1 min (α-synuclein): 77%
- % digested at 5 min (α-synuclein): 80%
- % digested at 60 min (α-synuclein): 72%
- digestion on immobilized protease column (Table 4) (α-synuclein): degraded
